Source: PubChem BioAssay
S100A4 inh HTS: blocks human S100A4 binding to myosin IIA peptide; 360,000 tested, 0.14% active; P26447; S100A4/TAMRA-MyoIIA peptide fluorescence polarization; inhibition, % at 10.7 µM;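 active = mean inhibition of at least 70% across replicates, with every replicate also reaching that level; inconclusive = mean inhibition reaches 70% but some replicates fall short; inactive = mean inhibition below 70%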
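Material: S100A4 monomer protein / Buffer or medium: 50 mM HEPES pH 7.2, 10 mM CaCl2, 100 mM KCl / Times: 5 min incubation before reading / Benchmarks: neutral control DMSO, positive control TFP / Reagent: labelled myosin peptide probe, 5 nM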
MLL AF4-AF9 inh: MLL-AF4/AF9 protein interaction inhibition; P42568; AlphaScreen, biotin-AF4 peptide binding to FLAG-AF9; inhibition, % at 10 µM; 350,000 tested, 0.47% active; AID 651704;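 active = every replicate reaching a set inhibition limit, whatever the replicate mean, cut at about 25% in these data; inconclusive = mean inhibition reaches that limit but some replicates miss it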
Yeast UUG start: alters start codon recognition fidelity in yeast; AID 602363; activity score, % at 18.7 µM; 350,000 tested, 0.13% active; S. cerevisiae UUG-firefly luciferase reporter, luminescence/redox ratio;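 active means replicate mean at a twofold rise or more, about +100% in these data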;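 further: firefly luciferase made from a UUG start codon reports start codon fidelity; reporter light over untreated wells divided by growth signal over untreated wells; some hits fall short of that in this replicate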
ERAP1 inh: inhibitors of human ERAP1 aminopeptidase. AID 652197. inhibition, % at 10.7 µM. 340,000 tested, 0.15% active. Q9NZ08. recombinant ERAP1, Leu-AMC fluorescence, 60 min;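 active = mean replicate inhibition of at least 30%, or all replicates individually reaching that 30% level; inactive = mean below 30% and not every replicate reaching it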
E-selectin induc: E-selectin induction on HUVECs | 260,000 tested, 0.37% active | AID 686992 | activation, % at 7.58 µM | P16581 | HUVEC E-selectin immunofluorescence imaging; normalized: neutral wells 0, TNF-alpha wells 100;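 active = mean E-selectin-positive cell signal at least 10% of the positive control, reached in at least 60% of replicates, without over 20% cell loss; inconclusive = no rule given, readout overlaps actives, possibly toxicity-flagged; inactive = the rest, including those meeting only one limit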
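Read-out basis: % PE-positive cells; Test system: HUVEC primary endothelial cells; Technique: immunofluorescence imaging; Dosing: single-point compound dose.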
ARNT-TACC3 inh: ARNT/TACC3 interaction disruption | Q9Y6A5 | inhibition, % at 9.99 µM | AlphaScreen His-ARNT PAS-B/GST-TACC3 binding, luminescence; TACC3 fragment carries E629A point mutation | 390,000 tested, 0.66% active;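 active = mean inhibition of replicates at least 50% and at least half of replicates each reaching 50%; inconclusive = half or more replicates reach 50% but mean below 50%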
AlphaScreen intf: interferes with the AlphaScreen assay signal; shares compounds with MLL AF4-AF9 inh; AlphaScreen interference counter-screen, signal luminescence; AC50, µM (doses to about 12 µM); 530 tested, 45% active; AID 720494; cut-off not given, nearly all actives have AC50 up to about 14 µM
Large screens that a line does not name were inactive (follow-up assays come after a bar, where they were run); ! = not confirmed by another sample. Only some compounds are listed: those with a hit (about 1.3% of all), similar ones and a draw of the others.

O=C1CCC[C@@H]2C[C@@]3(C[C@@H]4CCN1[C@H]24)Nc1cc(Cl)ccc1NC3=NC1CCCCC1	none
Cc1cc2c(cc1C)N[C@]1(C[C@H]3CCCC(=O)N4CC[C@@H](C1)[C@@H]34)C(=NC(C)(C)CC(C)(C)C)N2	MLL AF4-AF9 inh 50 | AlphaScreen intf inactive
Cc1ccsc1/C=N/N1CCN(Cc2ccccc2)CC1	MLL AF4-AF9 inh 27 (no result: E-selectin induc) | AlphaScreen intf inactive
Cc1ccsc1/C=N/N1CCN(c2ccccc2)CC1	none (no result: E-selectin induc)
C[C@@H]1CN([C@H](C)CO)C(=O)c2cc(N(C)C)ccc2O[C@@H](C)CCCCO[C@@H]1CN(C)Cc1ccncc1	none
C[C@H](CO)N1C[C@H](C)[C@@H](CN(C)Cc2ccc(Cl)c(Cl)c2)Oc2ccc(N(C)C)cc2CC1=O	MLL AF4-AF9 inh 40 | AlphaScreen intf inactive
C[C@@H]1CN([C@@H](C)CO)C(=O)Cc2cc(N(C)C)ccc2O[C@H]1CN(C)Cc1ccc(Cl)c(Cl)c1	MLL AF4-AF9 inh 48 | AlphaScreen intf 12µM
C[C@@H]1CCCCO[C@H](CN(C)Cc2ccc(Cl)c(Cl)c2)[C@@H](C)CN([C@H](C)CO)C(=O)c2cc(N(C)C)ccc2O1	MLL AF4-AF9 inh 50! | AlphaScreen intf inactive
COc1ccccc1NC(=O)N[C@@H]1C=C[C@@H](CC(=O)N2CCC(Cc3ccccc3)CC2)O[C@H]1CO	none
COc1cc(O)c(C(CCN2CCN(c3ccccc3)CC2)c2ccc(N(C)C)cc2)c(OC)c1 (stereo not drawn)	MLL AF4-AF9 inh 50 (no result: E-selectin induc) | AlphaScreen intf inactive
COc1ccc(C(CCN2CCN(c3ccccc3)CC2)c2c(O)cc(OC)cc2OC)cc1 (stereo not drawn)	none (no result: S100A4 inh HTS, MLL AF4-AF9 inh, ERAP1 inh)
O=S(=O)(c1ccc(Cl)cc1)N1CCN(Cc2ccncc2)CC1	none
O=S(=O)(c1ccc(Cl)cc1)N1CCN(Cc2ccc(O)c3ncccc23)CC1	MLL AF4-AF9 inh 75 (no result: Yeast UUG start) | AlphaScreen intf inactive
CN(C)CCNc1nc2sc3c(c2c(=O)n1CCc1ccccc1)CCCCC3	MLL AF4-AF9 inh 31 (no result: E-selectin induc) | AlphaScreen intf inactive
CC(O)CNc1nc2sc3c(c2c(=O)n1CCc1ccccc1)CCCCC3 (stereo not drawn)	none (no result: Yeast UUG start, E-selectin induc, ARNT-TACC3 inh)
CN(C)CCNC(=O)c1cccc(-c2cc(NC=O)c3ncc(-c4cccc(C(F)(F)F)c4)n3c2)c1	MLL AF4-AF9 inh 36 (no result: ARNT-TACC3 inh) | AlphaScreen intf inactive
CN(C)CCNC(=O)c1cccc(-c2cnc3c(NC=O)cc(-c4cc(F)c(F)c(F)c4)cn23)c1	none (no result: ARNT-TACC3 inh)
CC(C)n1ncc2c(C(=O)Nc3ccc(S(C)(=O)=O)cc3)cc(C3CC3)nc21	none
CC(C)n1ncc2c(C(=O)Nc3ccc(S(N)(=O)=O)cc3)cc(C3CC3)nc21	MLL AF4-AF9 inh inconclusive (no result: E-selectin induc) | AlphaScreen intf inactive
O=C(C[C@@H]1CC[C@H]2[C@@H](COC[C@@H](O)CN2S(=O)(=O)c2cccc(Cl)c2)O1)N1CCOCC1	none
COc1cccc(-c2sc3ccccc3c2-c2ccc(OCCN3CCCC3)cc2)c1	MLL AF4-AF9 inh inconclusive (no result: ERAP1 inh)
COc1cccc(-c2sc3ccccc3c2-c2ccc(OCCN(C)C)cc2)c1	MLL AF4-AF9 inh 29 (no result: ARNT-TACC3 inh) | AlphaScreen intf inactive
O=C(C[C@H]1C[C@H]2c3cc(NC(=O)C4CCOCC4)ccc3O[C@H]2[C@H](CO)O1)NC1CCCC1	none
COc1ccc(CN(C)C[C@@H]2OCCCC[C@H](C)Oc3ccc(NC(=O)NC(C)C)cc3C(=O)N([C@@H](C)CO)C[C@@H]2C)cc1	none
O=C(O)CCCNc1cc(N2CCN(C(=O)c3ccco3)CC2)c2noc3c2c1C(=O)c1ccccc1-3	MLL AF4-AF9 inh 37, ARNT-TACC3 inh 46 | AlphaScreen intf inactive
O=C1c2ccccc2-c2c1cccc2C(=O)N1CCN(C(=O)c2ccco2)CC1	none (no result: S100A4 inh HTS, MLL AF4-AF9 inh, ERAP1 inh, E-selectin induc)
Nc1ccccc1NC1CCCCC1	MLL AF4-AF9 inh 33 (no result: Yeast UUG start, E-selectin induc) | AlphaScreen intf 10µM
Cc1cc(N=Nc2ccc(Cl)cc2)cc(CN2CCOCC2)c1O	MLL AF4-AF9 inh 30 (no result: E-selectin induc, ARNT-TACC3 inh) | AlphaScreen intf inactive
CNC[C@H]1Oc2cc(C#CCN(C)C)ccc2S(=O)(=O)N([C@H](C)CO)C[C@H]1C	none
CNC(=S)N1N=C(c2ccc(Br)cc2)CC1c1ccc(N(C)C)cc1 (stereo not drawn)	MLL AF4-AF9 inh 27 (no result: Yeast UUG start, E-selectin induc) | AlphaScreen intf inactive
